Assay results taken from PubChem BioAssay AID1852 (Sanford-Burnham Center for Chemical Genomics, 2009).
This is a selection; strong and weak results do not stand in their true shares. Activity calls are given as the source filed them.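 The calls were made as follows: active = inhibition above 50% at 4 µM in the single-point screen; inactive = inhibition of 50% or less.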

Experiment: TNF-a-driven NF-kB reporter inhibitors, primary screen, selectivity assay for NOD1/NOD2 signaling inhibitor project, cell-based, HEK293T NF-kB-Luc, luminescence (AID 1852)
Settings: TNF-a induced, 14 h, at 4 µM, active compounds read high
In the case of `O=[N+]([O-])c1ccc(O)c(/C=N/Nc2ccc([N+](=O)[O-])cc2[N+](=O)[O-])c1`, the inhibition is reported as active: 110%.
With `O=c1c2cc([N+](=O)[O-])ccc2[nH]c2c([N+](=O)[O-])cc([N+](=O)[O-])cc12` the inhibition was active: 77.2%.
For `C[N+]1=C2C=CC=CC=C2SC12C([N+](=O)[O-])=CC([N+](=O)[O-])=C[C-]2[N+](=O)[O-]` (stereo not drawn), the inhibition was active: 103%.
